Source: ChEMBL document CHEMBL4028893, “Discovery and Optimization of Potent, Cell-Active Pyrazole-Based Inhibitors of Lactate Dehydrogenase (LDH)” (J Med Chem, 2017)

Tests used:
Plasma = assay: Half life in mouse plasma; type: ADME, cell-free
[1] = Kinetic solubility of compound in PBS buffer at 150 uM at pH 7.4 after 6 hrs by shake-flask method; type: physicochemical; details: pH 7.4, 6 h
Liver = assay: Half life in rat liver microsomes in presence of NADPH/UDPGA; type: ADME, microsome
Mus musculus = assay: Half life in CD1 mouse plasma at 50 mg/kg, po measured over 24 hrs post dose by LC/MS/MS analysis; type: ADME, organism-based; details: in vivo

SMILES: NS(=O)(=O)c1ccc(Cc2c(-c3cccc(-c4ccccc4)c3)nn(-c3nc(C(=O)O)cs3)c2CC2CC2)cc1
- t1/2 (Plasma): > 2 h
- Kinetic_solubility [1]: > 82 µg/mL
- t1/2 (Liver): > 0.5 h

SMILES: NS(=O)(=O)c1ccc(Cc2c(-c3cccc(-c4ccccc4)c3)nn(-c3nc(C(=O)O)cs3)c2C2CC2)cc1
- t1/2 (Plasma): > 2 h
- Kinetic_solubility [1]: > 82 µg/mL
- t1/2 (Liver): > 0.5 h
- t1/2 (Mus musculus): 1.94 h
